Among the data in PubChem BioAssay AID651725 (National Center for Advancing Translational Sciences (NCATS), 2012) are activity change values, retold here.

Sequences of proteins named here, by UniProt entry; tags and fusion partners are left off.
UniProt Q15475, whole entry: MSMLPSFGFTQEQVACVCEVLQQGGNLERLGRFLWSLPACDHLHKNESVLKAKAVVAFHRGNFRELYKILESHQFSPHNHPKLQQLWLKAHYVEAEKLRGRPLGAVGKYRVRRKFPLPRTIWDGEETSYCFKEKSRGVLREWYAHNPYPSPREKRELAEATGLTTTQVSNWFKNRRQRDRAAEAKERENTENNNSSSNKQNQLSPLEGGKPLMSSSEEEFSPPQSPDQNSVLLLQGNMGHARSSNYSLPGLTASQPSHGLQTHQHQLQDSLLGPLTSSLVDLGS

The list shows a part of the results, in another mix than the full data. The source made the active and inactive calls. Rule as the data show it: active = activity change below about -65%; inconclusive = mostly about -30% to -63%; inactive = weaker than that.
% is scaled to controls: 0 for no effect and ±100 for the full control effect.

The assay addresses Homeobox protein SIX1 (Homo sapiens) + Protein phosphatase EYA2 (Homo sapiens) (UniProt Q15475+O00167). As to the kind of experiment: qHTS Assay for Inhibitors of the Six1/Eya2 Interaction. To be noted: AlphaScreen GST-Six1/His-Eya2 binding, biochemical; stronger effect = lower value. The gist of the method: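 AlphaScreen luminescence read after one hour at 37 °C in darkness. Pin-transferred compounds met GST-Six1 and His-Eya2 protein (5X stock 250 nM/500 nM) plus glutathione donor and Ni-chelate acceptor beads (5X, 50 ug/mL).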
As for `CCN(CC)CC(O)COC(=O)C(O)(c1ccccc1)C1CCCCC1` (centres undefined), the activity change was inactive: 2.09%. To `O=C(OCCCN1CCCC1)C(O)(c1ccccc1)C1CCCCC1` (centres undefined) belongs inactive: 3.19%; to `O=[N+]([O-])c1cccc2n[nH]nc12`, inactive: 8.7%; to `CC(=O)N1C2C3N(C(C)=O)C1C1N(C(C)=O)C(C(N1C(C)=O)N3C(C)=O)N2C(C)=O`, inactive: 6.79%. The figure for `COc1ccccc1OP(C)(=O)Nc1c(C)n(C)n(-c2ccccc2)c1=O` (centres undefined) is inactive: 3.86%.

`CCc1ccc(OP(C)(=O)Nc2cccnc2)cc1` (centres undefined): the activity change is inactive: 3.39%. The figure for `CCc1nc2c(n1)c1c(non1O)c1c2no[n+]1[O-]` is inactive: -13.6%; for `Cc1ccc(NP(=O)(Oc2ccccc2)Oc2ccccc2)nc1` it is inactive: 3.7%.

On to `CP(=O)(Oc1ccccc1)N1CCOC1=O` (centres undefined), for which the activity change is inactive: -0.425%. The figure for `COc1ccccc1OP(C)(=O)Nc1ccccc1Br` (centres undefined) is inactive: 10.1%. The figure for `CC(C)(C)c1ccc(OP(C)(=O)O)cc1` is inactive: 5.25%; for `Nc1ccc([As](=O)(O)c2ccc(N)cc2)cc1` it is inactive: 2.29%. The figure for `CP(=O)(Nc1ccc(Cl)cc1)Oc1ccc(F)cc1` (centres undefined) is inactive: 0%; for `CCN(/C(=N/P(=O)(N1CCOCC1)N1CCOCC1)N1CCOCC1)c1ccc(OC)cc1` it is inactive: 2.77%; for `CN(C)C(=O)OCCc1n(C)cc[n+]1C` it is inactive: -0.0938%. Consider `CC(C)c1nc(Nc2ccccc2)n(P(=O)(N(C)C)N(C)C)n1`, for which the activity change is inactive: -1.16%. To `CN(C)C(=O)c1c([N+](=O)[O-])cc([N+](=O)[O-])cc1[N+](=O)[O-]` belongs inactive: -9.67%; to `CC(C)=N/N=C(\N)N[N+](=O)[O-]`, inactive: 7.1%. As for `CC1CCN(C(=O)Oc2c(Cl)cc(Cl)c3cccnc23)CC1`, the activity change was inactive: 6.54%. The figure for `c1cc(-c2nn[nH]n2)ccc1-c1nn[nH]n1` is inactive: -10.3%; for `Nc1ccc2c(ccc3cccnc32)n1.O=[N+]([O-])c1cc([N+](=O)[O-])c(O)c([N+](=O)[O-])c1` it is inactive: -16%. The figure for `O=P1(N(CCCl)CCCl)OCCCS1` (centres undefined) is inactive: 5.61%; for `O=C(Nc1cc([As](=O)(O)O)ccc1O)c1ccccc1` it is inactive: 5.7%. As to `CCOC(=O)c1ccc(NP(C)(=O)Oc2ccc(Cl)cc2)cc1` (centres undefined), the activity change was inactive: -2.18%. The figure for `CP(=O)(OC12CC3CC(CC(C3)C1)C2)OC12CC3CC(CC(C3)C1)C2` is inactive: -0.0441%. The figure for `CC(C)(C)C(=O)NC(Sc1ccncn1)C(Cl)(Cl)Cl` (centres undefined) is inactive: 4.06%.

For the compound `O=[N+]([O-])c1ncn(CCn2ncnc2[N+](=O)[O-])n1`, the activity change was inactive: 5.42%. `COC(=O)C1(C)COP(=O)(Nc2ccccc2)OC1` (centres undefined): the activity change was inactive: 9.28%. The figure for `O=[N+]([O-])c1cccc(NC2=NCC(CBr)S2)c1` (centres undefined) is inactive: 2.73%.

Turning to `O=C(O)CNc1ccc([As](=O)(O)O)cc1`, the activity change is inactive: 5.08%.

In the case of `CC1CCNP(=O)(N(CCCl)CCCl)O1` (centres undefined), the activity change is inactive: 8.59%. To `O=C(O)C(=O)c1ccc(N(CCCl)CCCl)cc1.c1ccc(Nc2ccccc2)cc1` belongs inactive: -16.2%; to `CCOC(=O)Nc1ccc([As](=O)(O)O)c(O)c1`, inactive: 7.33%; to `Cc1cc(SC(NC(=O)c2ccccc2)C(Cl)(Cl)Cl)nc(C(C)C)n1` (centres undefined), inactive: 0.584%.

`CCCCOc1ccc(C(=O)NCC2(N3CCCCC3)CCCCC2)cc1OC`: the activity change was inactive: 4.75%. The figure for `COP(=O)(OC)N1CC1c1ccccc1` (centres undefined) is inactive: 4.72%; for `CCOC(=O)Nc1cccc([As](=O)(O)O)c1` it is inactive: 6.23%; for `CP(=S)(Nn1cnnc1)Oc1ccccc1` (centres undefined) it is inactive: 10.2%.

For the compound `O=[N+]([O-])c1ccc(Nc2ccc(Oc3ccc([N+](=O)[O-])cc3[N+](=O)[O-])cc2)c([N+](=O)[O-])c1`, the activity change was inactive: 0.623%.

On to `CP(=O)(Nc1ccccc1Br)Oc1ccccc1` (centres undefined), for which the activity change is inactive: 2.27%.

As to `COc1ccccc1OP(C)(=O)Nc1ccccc1` (centres undefined), the activity change was inactive: 1.35%.

For `O=P(Nc1ccccn1)(c1cccc2ccccc12)c1cccc2ccccc12`, the activity change was inactive: -2.18%. To `Cc1cc(SC(NC=O)C(Cl)(Cl)Cl)ncn1` (centres undefined) belongs inactive: -1.78%; to `CP(=O)(Oc1ccccc1)OC(c1ccccc1)C(F)(F)F` (centres undefined), inactive: 2.72%. To `COC(=O)C1(C)COP(=O)(N2CCCC2)OC1` (centres undefined) belongs inactive: 0%; to `COP1(=S)c2c(C)nn(CCC#N)c2N=C(c2ccc(F)cc2)N1C` (centres undefined), inactive: 1.47%; to `Cc1cccc(C)c1OP(C)(=O)Nc1ccc(SC(F)(F)F)cc1` (centres undefined), inactive: 0.483%. The figure for `CP(=O)(Nc1ccc(SC(F)(F)F)cc1)Oc1ccc(Cl)cc1` (centres undefined) is inactive: -3.05%; for `Cc1cc(C)cc(OP(C)(=O)Nc2ccc(SC(F)(F)F)cc2)c1` (centres undefined) it is inactive: -1.8%; for `O=C(Nc1ccncc1[N+](=O)[O-])c1ccc([N+](=O)[O-])cc1[N+](=O)[O-]` it is inactive: -1.48%. For the compound `O=C(COc1ccccc1)OC1CN2CCC1CC2` (centres undefined), the activity change is inactive: -0.989%. The figure for `CP(=O)(NC(=O)Nc1ccccc1)Oc1ccccc1` (centres undefined) is inactive: -0.168%; for `CCc1ccc(OP(C)(=O)N2CCN(c3ccc([N+](=O)[O-])cc3)CC2)cc1` (centres undefined) it is inactive: -4.98%. As for `CCOC(=O)c1ccc(NP(C)(=O)Oc2ccc(OC)cc2)cc1` (centres undefined), the activity change is inactive: -9.79%. The figure for `CCOC(=O)c1ccc(NC(=O)C(C)(CCl)SC)cc1` (centres undefined) is inactive: 0.949%; for `O=[N+]([O-])c1cc([N+](=O)[O-])c(O)c([N+](=O)[O-])c1.c1ccc(Oc2ccncc2)cc1` it is inactive: 4.05%; for `CCOP(C)(=S)SCC(=O)NC(C)C(=O)O` (centres undefined) it is inactive: -4.87%. To `O=C(OC1CN2CCC1CC2)c1cccc([N+](=O)[O-])c1` (centres undefined) belongs inactive: 1.02%; to `CP(=O)(Nc1ccccn1)Oc1ccc(Cl)cc1` (centres undefined), inactive: -1.18%; to `CCC(C)N(CC(C)C)C(=S)SC(NC(C)=O)C(Cl)(Cl)Cl` (centres undefined), inactive: -11.4%. The figure for `Cc1cc(=O)[nH]c(N[N+](=O)[O-])n1` is inactive: 0.148%; for `CCN(CC)CCCOC(=O)C(O)(c1ccccc1)c1ccccc1` it is inactive: 3.8%. On to `O=C(OC1CN2CCC1CC2)C12CC3CC(CC(C3)C1)C2` (centres undefined), for which the activity change was inactive: -10.9%. Consider `Cc1c2c(nc3ccccc13)SC(C(Cl)Cl)C2` (centres undefined), for which the activity change is inactive: 8.72%. `COc1cc(I)ccc1[As](=O)(O)O`: the activity change was inactive: 2.39%. The figure for `COc1ccc2nc(NP(=O)(c3ccccc3)c3ccccc3)sc2c1` is inactive: -2.47%; for `O=P1(N(CCCl)CCCl)Nc2ccccc2N1` it is inactive: 3.01%. To `O=P1(N(CCCl)CCCl)OCCCN1CCCl` (centres undefined) belongs inactive: 6.21%. To `COc1ccccc1-c1ccccn1.O=[N+]([O-])c1cc([N+](=O)[O-])c(O)c([N+](=O)[O-])c1` belongs inactive: 6.05%; to `COc1ccc(N/C(=N/P(=O)(N2CCOCC2)N2CCOCC2)N2CCOCC2)cc1`, inactive: 1.43%.

Turning to `O=[N+]([O-])c1cc(Oc2ccc([N+](=O)[O-])cc2C(F)(F)F)cc([N+](=O)[O-])c1`, the activity change is inactive: 2.72%. To `O=[N+]([O-])c1ccc(-c2cc([N+](=O)[O-])c(O)c([N+](=O)[O-])c2)cc1` belongs inactive: -14.6%; to `COc1cc(C(=O)NCC2(N3CCOCC3)CCCCC2)ccc1OCC(C)C`, inactive: 0.308%; to `O=[As](O)(c1ccc(O)cc1)c1ccccc1O`, inactive: 5.4%. `C[As](=O)(O)c1cccc(C(=O)O)c1`: the activity change is inactive: 15.6%. The figure for `O=[N+]([O-])c1cc([N+](=O)[O-])c(Nc2cccnc2)c([N+](=O)[O-])c1` is inactive: -15.3%.

Take `O=[N+]([O-])c1ccc2c(c1)C=Nc1ccccc1O2`: the activity change was inactive: -27.7%. To `Cc1ccc2nc3c(c(C)c2c1)CC(C(Cl)Cl)S3` (centres undefined) belongs inactive: 0%; to `Cc1cccc(C)c1OP(C)(N)=O` (centres undefined), inactive: 10.7%; to `[N-]=[N+]=NC1CCCCC1NC(=O)c1cc([N+](=O)[O-])cc([N+](=O)[O-])c1` (centres undefined), inactive: 1.05%. The figure for `Cc1ccc(OP(=O)(Nc2ccc([N+](=O)[O-])cn2)Oc2ccc(C)cc2)cc1` is inactive: 1.34%; for `CC(C)(C)c1ccc(OP(C)(=O)Nc2ccc(SC(F)(F)F)cc2)cc1` (centres undefined) it is inactive: -7.8%. To `COC(=O)C1(C)COP(=O)(N2CCCCCC2)OC1` (centres undefined) belongs inactive: 2.81%; to `Cc1ccc(NP(C)(=O)Oc2ccccc2)c(C)c1` (centres undefined), inactive: 0.187%; to `CC(C)c1ccc(OP(=O)(Nc2ccccn2)Oc2ccccc2F)cc1` (centres undefined), inactive: 6.18%. Consider `COc1ccccc1OP(C)(=O)Nc1ccc(C)cc1` (centres undefined), for which the activity change is inactive: 8.46%. To `ClCCSc1nnc(-c2cccnc2)o1` belongs inactive: -1.34%; to `CCOC(=O)c1ccc(NP(C)(=O)Oc2ccccc2)cc1` (centres undefined), inactive: 3.82%; to `Cc1cc(C)cc(OP(C)(N)=O)c1` (centres undefined), inactive: 7.19%. The figure for `COc1ccc(OP(C)(=O)Nc2cccc(F)c2)cc1` (centres undefined) is inactive: -4.34%. Regarding `O=[N+]([O-])c1cc([N+](=O)[O-])c(-c2ccn[nH]2)s1`, the activity change is inactive: -7.41%.

Turning to `COc1ccccc1OP(C)(=O)Nc1cc(Cl)ccc1C` (centres undefined), the activity change was inactive: -1.44%. The figure for `CC(C)NC(=O)NP(=O)(Oc1ccccc1)Oc1ccccc1` is inactive: 3.07%; for `CCN(CC)C(=S)SC(NC=O)C(Cl)(Cl)Cl` (centres undefined) it is inactive: 5.46%. As for `O=C(OC1CN2CCC1CC2)c1cccc2[nH]cnc12` (centres undefined), the activity change is inactive: -2.41%. To `O=P(Nc1nccs1)(Oc1ccccc1)Oc1ccccc1` belongs inactive: 2.64%; to `O=P(Nc1nccs1)(c1ccccc1)c1nc2ccccc2s1` (centres undefined), inactive: -4.75%; to `CCOP1(=S)c2c(C)nn(CCC#N)c2N=C(c2ccccc2F)N1C` (centres undefined), inactive: -1.05%.

Consider `O=C(O)COc1ccc([As](=O)(O)O)cc1[N+](=O)[O-]`, for which the activity change is inactive: 8.03%.
